For assay [1], the target named is Kappa-type opioid receptor (Homo sapiens, UniProt P41145). Description: Radioligand Dose-Displacement Binding Assay. The following applies: pH 7.4.
Assay [2] has as its target Mu-type opioid receptor (Homo sapiens, UniProt P35372). Description: Radioligand Dose-Displacement Binding Assay. The following applies: pH 7.4.

For orientation: Ki means a measure of affinity in units of concentration, obtained from inhibition or displacement. Higher therefore signals weaker binding.

Molecules are shown by their SMILES.

In assay [1], `CO[C@]12CC[C@@]3(C[C@@H]1COCc1ccccc1Cl)[C@H]1Cc4ccc(O)c5c4[C@@]3(CC[N+]1(C)CC1CC1)[C@H]2O5` (stereo not given in full) yielded an inhibitory constant (Ki) of 0.19 nM.

Compound `CO[C@]12CC[C@@]3(C[C@@H]1COCc1ccc(Cl)cc1)[C@H]1Cc4ccc(O)c5c4[C@@]3(CC[N+]1(C)CC1CC1)[C@H]2O5` (stereo not given in full) returned a Ki in assay [1] of 0.59 nM.

In the case of `CO[C@]12CC[C@@]3(C[C@@H]1COCc1ccoc1)[C@H]1Cc4ccc(O)c5c4[C@@]3(CC[N+]1(C)CC1CC1)[C@H]2O5` (stereo not given in full), the affinity in assay [1], expressed as Ki, was 0.29 nM. Consider `COc1ccc2c3c1O[C@H]1[C@@]4(OC)CC[C@@]5(C[C@@H]4COCc4ccc(Cl)c(Cl)c4)[C@@H](C2)[N+](C)(CC2CC2)CC[C@]315` (stereo not given in full), for which the inhibition constant Ki in assay [1] turned out to be 5.02 nM. The compound `COc1ccc2c3c1O[C@H]1[C@@]4(OC)CC[C@@]5(C[C@@H]4COCc4cc6ccccc6o4)[C@@H](C2)[N+](C)(CC2CC2)CC[C@]315` (stereo not given in full) came in with an inhibition constant (Ki) in assay [2] of 275 nM.

The values are drawn from BindingDB's records for US9096606.
